The results in this text go back to ChEMBL document CHEMBL1136157, “Synthesis of 3a,4-dihydro-3H-[1]benzopyrano[4,3-c]isoxazoles, displaying combined 5-HT uptake inhibiting and alpha(2)-adrenoceptor antagonistic activities: a novel series of potential antidepressants” (Bioorg Med Chem Lett, 2003).

Each structure is given as a SMILES string.

This assay deals with Sodium-dependent serotonin transporter (Homo sapiens) (UniProt P31645). Put plainly: In vitro binding affinity towards human serotonin transporter.
The term Ki denotes a dissociation constant, usually derived from enzyme kinetics or from competition with a known ligand. Read a high Ki as lower affinity. On to `COc1cc2c(cc1OC)C1=NOC(CN3CCN(Cc4ccc5ccccc5c4)CC3)C1CO2` (stereo not drawn), for which the Ki turned out to be 1.7 nM.
The molecule `COc1cc2c(cc1OC)C1=NO[C@@H](CN3CCN(Cc4ccc5ccccc5c4)CC3)[C@@H]1CO2` (stereo in doubt; (+)15h) came in with a Ki of 1.7 nM.
For `COc1cc2c(cc1OC)C1=NO[C@@H](CN3CCN(Cc4ccc5ccccc5c4)CC3)[C@@H]1CO2` (stereo in doubt; (-)15h) the value was 1.3 nM.
